# In US20200352931A1, “OXALAMIDES AS MODULATORS OF INDOLEAMINE 2,3-DIOXYGENASE” (PHENEX DISCOVERY VERWALTUNGS-GMBH, priority 2017, published 2020):
# Amino acid sequences for entries named in this document (tags omitted).
# UniProt P14902, whole entry: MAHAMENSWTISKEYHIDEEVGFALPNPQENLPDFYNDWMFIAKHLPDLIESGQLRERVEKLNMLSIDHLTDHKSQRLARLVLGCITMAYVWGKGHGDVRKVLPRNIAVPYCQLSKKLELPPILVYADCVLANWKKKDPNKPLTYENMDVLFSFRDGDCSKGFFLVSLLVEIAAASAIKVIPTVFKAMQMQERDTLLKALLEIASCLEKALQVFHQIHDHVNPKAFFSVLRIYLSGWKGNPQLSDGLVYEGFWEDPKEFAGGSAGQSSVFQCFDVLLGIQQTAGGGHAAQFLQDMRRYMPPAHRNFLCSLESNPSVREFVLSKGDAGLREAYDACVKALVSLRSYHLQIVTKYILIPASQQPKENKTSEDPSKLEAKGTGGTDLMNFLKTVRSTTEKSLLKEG
# Biological target: Indoleamine 2,3-Dioxygenase (IDO1) in SKOV-3 cells (Homo sapiens, UniProt P14902)
# Test: SKOV-3 cellular indoleamine 2,3-dioxygenase assay
# Conditions: read-out: cell based activity (IC50), 50 ng/ml Interferon gamma, 100 μM L-Tryptophan, 24 hours, N-Formylkynurenin fluorescence
# Protocol: SKOV-3 Cellular Indoleamine 2,3-Dioxygenase Assay
# SKOV-3 cells were obtained from the American Type Culture Collection (ATCC® HTB-77™) and maintained in McCoy's medium (Pan Biotech) supplemented with 10% fetal bovine serum and 1% Penicilin/Streptomycin. Cells were kept at 37° C. in a humidified incubator with 5% CO2. For assay preparation, cells were seeded at a density of 2*10^5/m into black clear bottom 96 well plates in 100 μl medium/well supplemented with 50 ng/ml Interferon gamma (eBioscience, Thermo Fisher Scientific). After cells fully adhered to the plate, dilution series of compounds were added in medium containing additional L-Tryptophan to a final L-Tryptophan concentration of 100 μM. The cells were incubated for 24 hours. Detection of produced N-Formylkynurenin was performed by addition of 3-Methylpiperidine to a final concentration of 200 mM. The plates were sealed and heated to 65° C. for 20 minutes in a water bath. After cooling the fluorescence of each well was recorded with a Victor™ X4 (PerkinElmer) plate reader at an emission wavelength of 535 nm and excitation at 405 nm (Tomek et al.; Anal Bioanal Chem (2013) 405:2515-2524., Tomek et al.; Biochim Biophys Acta. 2015 September; 1850(9):1772-80).
smiles,measurement,value
O=C(Nc1ccc(C(F)(F)F)cc1)C(=O)N1CCC2(CC1)OCc1cc(Cl)ccc12,IC50,100 to 1000 nM
